According to patent US20060110456A1, “Method for biocidal and/or biostatic treatment and compositions therefor” (NATIONAL UNIVERSITY OF SINGAPORE, priority 2004, published 2006):

Key:
Format in all cases: cell-based, marine bacteria isolated from Singapore fouling communities
[1] = tested on: marine bacteria (26 strains); assay: Disk inhibition assay
[2] = tested on: marine bacteria; assay: Growth assay (absorbance, 96-well plates); details: 25 μg ml−1; strain named in the value; hydrochloride
[3] = tested on: marine bacteria (ten strains); assay: Bacteriostatic vs bacteriocidal activity from growth assay: absorbance and CFU counts; details: 50 μg ml^−1

In the case of CN[C@H]1CC[C@@H](c2ccc(Cl)c(Cl)c2)c2ccccc21.Cl [ZLT, sertraline hydrochloride], the “Activity against the three Vibrio strains tested” value [1] is reported as “exhibited activity against the three Vibrio strains tested”, the “Antibiotic activity against marine bacteria” value [1] is reported as “strongest activity” and the “Antibiotic activity against marine bacteria” value ([1]; crude rank, best (1) to worst (8)) is reported as 1. For the same molecule, the “Growth response (absorbance over time)” value [2] was “Strain 16 showed delayed growth after 20 hours; also recorded: Recovery of growth by strain 16; also recorded: Little or no growth response by bacteria strain 28”, the “Growth assay: 24-hour change in absorbance for ten strains” value ([3]; strains 1, 4, 9, 14, 18, 20, 27, 28, 29, 30) was “only strain number 14 grew in the presence of ZLT” and the “Result (bacteriostatic / bacteriocidal / no effect)” value ([3]; strain 1 (Rhodovulum)) was “bacteriostatic”. For the same molecule, the “Result (bacteriostatic / bacteriocidal / no effect)” value ([3]; strain 4 (Bacillus)) was “bacteriocidal”, the “Result (bacteriostatic / bacteriocidal / no effect)” value ([3]; strain 9 (Bacillus)) was “bacteriocidal” and the “Result (bacteriostatic / bacteriocidal / no effect)” value ([3]; strain 14 (Vibrio)) was “no effect”. For the same molecule, the “Result (bacteriostatic / bacteriocidal / no effect)” value ([3]; strain 18 (Microbacterium)) was “bacteriostatic”, the “Result (bacteriostatic / bacteriocidal / no effect)” value ([3]; strain 20) was “bacteriocidal” and the “Result (bacteriostatic / bacteriocidal / no effect)” value ([3]; strain 27) was “bacteriocidal”. For the same molecule, the “Result (bacteriostatic / bacteriocidal / no effect)” value ([3]; strain 28) was “bacteriostatic”, the “Result (bacteriostatic / bacteriocidal / no effect)” value ([3]; strain 29) was “bacteriocidal” and the “Result (bacteriostatic / bacteriocidal / no effect)” value ([3]; strain 30) was “bacteriostatic”.

Entries after “also recorded” stand apart in the source; their conditions may differ. Read-outs that look alike come from different tables or passages of the source.
